We go through 5 compounds from PubChem BioAssay AID483 (Columbia University Molecular Screening Center, 2006).

The entries are a selection whose mix differs from that of the whole data set. The source made the active and inactive calls.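 Rule for the calls: active = visual image review flags a hit and inhibition of aggregation exceeds 20%; inconclusive = visual hit but inhibition at or below 20%; inactive = no hit on visual image review.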

The nature of the experiment: reduction of polyQ htt aggregates in cells – imaging, exon1htt(103Q)mCFP cells, high-content imaging, primary screen (AID 483).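 Note: compound exposure lasted 3 days before fixation.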 The following applies: exon1htt(103Q)mCFP cell line, aggregate imaging; at 2 µM; stronger effect = higher value.
With `Cc1ccc(C)c(NP(C)(=O)Oc2ccccc2)c1` (stereo not given), the inhibition of aggregation is inactive: -25.4%.

Turning to `CP(=S)(Nn1cnnc1)Oc1ccccc1` (stereo not given), the inhibition of aggregation is inactive: 10.9%. As to `CP(=O)(Nc1ccccn1)Oc1ccccc1` (stereo not given), the inhibition of aggregation is inactive: 17.3%. The same measure for `CN(C)CCOC(=O)C(O)(c1ccccc1)C1CCCCC1` (stereo not given): inactive: -4.8%; for `CP(=O)(Nc1ccc2c(c1)OCCO2)Oc1ccccc1` (stereo not given): inactive: -9.8%.
